Earlier results as cited in patent US20070243268A1, “Compositions for regulating intestinal disorders and methods of use thereof” (priority 2005, published 2007).

Settings: fingernail brittleness and hair loss as main criteria

[Se] [selenium]
daily intake at which chronic selenium toxicity (selenosis) occurs: about 5 mg
